Laboratory results as given in ChEMBL document CHEMBL1127295, “Development of a model for the delta opioid receptor pharmacophore. 2. Conformationally restricted Phe3 replacements in the cyclic delta receptor selective tetrapeptide Tyr-c[D-Cys-Phe-D-Pen]OH (JOM-13)” (J Med Chem, 1994).

By UniProt entry, the sequences of proteins in these tests, tags left out.
UniProt P97266, whole entry: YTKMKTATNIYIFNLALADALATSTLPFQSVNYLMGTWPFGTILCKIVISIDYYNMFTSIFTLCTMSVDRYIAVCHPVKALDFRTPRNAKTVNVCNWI

Experiments:
[1] = biological target: T1, Mu-type opioid receptor (Cavia porcellus, UniProt P97266); assay: Agonist activity was assessed in an guinea pig ileum (GPI) smooth muscle bioassay; format: functional, tissue-based
[2] = biological target: T1, Mu-type opioid receptor; assay: Binding affinity against mu opioid receptor using [3H]DAMGO in guinea pig ileum; format: tissue-based

CC1(C)SSC[C@H](NC(=O)[C@@H](N)Cc2ccc(O)cc2)C(=O)N[C@H](Cc2ccccc2)C(=O)N[C@@H]1C(=O)O (stereo in doubt; 3)
pIC50 [1]: 5.43
pKi [2]: 6.00

CC1(C)SSC[C@H](NC(=O)[C@@H](N)Cc2ccc(O)cc2)C(=O)N[C@H](Cc2ccccc2)C(=O)N[C@@H]1C(=O)O (stereo in doubt; 4)
pIC50 [1]: < 4.52
pKi [2]: < 5.00

CC1(C)SSC[C@H](NC(=O)[C@@H](N)Cc2ccc(O)cc2)C(=O)N[C@H](Cc2ccccc2)C(=O)N[C@@H]1C(=O)O (stereo in doubt; 5)
pIC50 [1]: 6.12
pKi [2]: 6.59

CC1(C)SSC[C@H](NC(=O)[C@@H](N)Cc2ccc(O)cc2)C(=O)N[C@H](Cc2ccccc2)C(=O)N[C@@H]1C(=O)O (stereo in doubt; 6)
pKi [2]: 5.60

pIC50, pKi: −log10 of the molar value.
